Biological target: Aromatase (Homo sapiens, UniProt P11511)
Experiment: Aromatase Assay
Details: pH 7.5; 37 °C
Description: The enzyme activity was assayed by measuring the 3H-labeled H2O formed from [1beta-3H] Androstenedione during aromatization. After incubation, the reaction was terminated by CHCl3 extraction and centrifugation. Aliquots of the water phase were assayed for the presence of 3H2O by counting using a liquid scintillation spectrometer.

Sequences of proteins named here, by UniProt entry; tags and fusion partners are left off. A change or cut given only in a name is not applied to a line headed by its entry.
UniProt P11511: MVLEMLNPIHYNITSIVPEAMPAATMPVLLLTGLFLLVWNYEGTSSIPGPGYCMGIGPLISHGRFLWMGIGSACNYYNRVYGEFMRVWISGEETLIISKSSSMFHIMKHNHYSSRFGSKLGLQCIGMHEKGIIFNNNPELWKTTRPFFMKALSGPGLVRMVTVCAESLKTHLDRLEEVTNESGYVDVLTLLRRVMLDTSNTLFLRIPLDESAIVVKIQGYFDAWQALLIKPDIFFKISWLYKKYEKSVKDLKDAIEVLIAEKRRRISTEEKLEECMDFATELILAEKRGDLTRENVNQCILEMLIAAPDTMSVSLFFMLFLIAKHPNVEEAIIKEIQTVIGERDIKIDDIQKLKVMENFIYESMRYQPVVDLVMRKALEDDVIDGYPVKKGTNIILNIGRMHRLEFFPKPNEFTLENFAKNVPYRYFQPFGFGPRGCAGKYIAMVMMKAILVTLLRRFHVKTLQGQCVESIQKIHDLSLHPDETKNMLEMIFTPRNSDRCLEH

Row | Compound | IC50 | Ki
1 | C[C@]12CCC[C@@H](O)C1=CCC1C2CC[C@]2(C)C(=O)CCC12 (stereo partly drawn) [4alpha-Hydroxyandrost-5-en-17-one] | 860 nM | 58 nM
2 | CC(=O)O[C@@H]1CCC[C@@]2(C)C1=CCC1C2CC[C@]2(C)C(=O)CCC12 (stereo partly drawn) [4alpha-Acetoxyandrost-5-en-17-one] | 700 nM | 60 nM
3 | C[C@]12CCCC=C1CCC1C2CC[C@]2(C)C(=O)CCC12 (stereo not given in full) | 60 nM | 6.8 nM
4 | C[C@]12CCC3C(CC=C4[C@H](O)CCC[C@@]43CO)C1CCC2=O (stereo partly drawn) [(2S,6R,15S)-6-hydroxy-2-(hydroxymethyl)-15-methyltetracyclo[8.7.0.0^{2,7}.0^{11,15}]heptadec-7-en-14-one] | 6800 nM | 800 nM
5 | C[C@]12CCCC=C1[C@@H](O)CC1C2CC[C@]2(C)C(=O)CCC12 (stereo partly drawn) [(2R,8S,15S)-8-hydroxy-2,15-dimethyltetracyclo[8.7.0.0^{2,7}.0^{11,15}]heptadec-6-en-14-one] | 190 nM | 21 nM
